The values below come from US9808527B2, “Methods and compositions for treating HIV infections” (priority 2006, dated 2017).

The target in this assay is T1, CFP- and YFP-tagged HIV-1 protease subunits (Human immunodeficiency virus type 1 group M subtype B, UniProt P12497).
T1 construct: expressed in transfected cells; host or cells: Cos-7
It counts as cell-based. Conditions: Cos-7 cells. The method, then: After 72 hr, cultured cells were examined in the FRET-HIV-1 assay system using confocal microscopy Fluoview FV500 confocal laser scanning microscope, and CFP^A/B were determined and plotted. […] The FRET efficiency was determined following acceptor photobleaching as previously described (Bastiaens et al., EMBO 1996; Siegel et al., Science's stke 2000; Firulli et al., Nature genetics, 2005; Szczesna et al., JBC 2003). […] The changes in the CFP and YFP fluorescence intensity in the images of selected regions were examined and quantified using Olympus FV500 Image software system. […] FRET efficiency was determined using the formula: ET=(1−(IDA/ID))×100, where IDA and ID represent the steady-state donor fluorescence in the presence and absence of the acceptor, respectively. […] Ratios of intensities of ECFP fluorescence after photobleaching to ECFP fluorescence prior to photobleaching were determined. […]
Generation of FRET-based HIV-1 expression assay. The basic concepts of the intermolecular fluorescence resonance energy transfer (FRET)-based HIV-1-expression assay (FRET-HIV-1 assay) are shown in FIG. 7. […] A focused laser beam excitation of CFP (triggered by Helium-Cadmium laser) results in rapid energy transfer to YFP, and most of the fluorescence photons are emitted by YFP (Miyawaki et al. Nature 388(6645):882-887 (1997)). […]

SMILES strings stand for the structures. Like-named read-outs stand apart in the source and are kept apart here.

Turning to `CC(C)CN(C[C@@H](O)[C@H](Cc1ccccc1)NC(=O)O[C@H]1CCOC1)S(=O)(=O)c1ccc(N)cc1` [APV, Amprenavir], the “inhibition of protease dimerization” value runs as follows: (1 μM) “None”; (10 μM) “none of these 4 PIs inhibited protease dimerization”.
